Data published in PubChem BioAssay AID493098 (Sanford-Burnham Center for Chemical Genomics, 2011).
Only a part is listed here, and it is no random draw. Some salts or complexes appear as unconnected parts, following the source record. Active and inactive are the calls of the source.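 The calls were made as follows: active = compounds whose inhibition of the agonist-driven luminescence signal at 20 µM reaches about 50% (limit read from the data); inactive = the rest.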

Chains of the proteins cited; added tags and fusions are not shown.
UniProt P51684, whole entry: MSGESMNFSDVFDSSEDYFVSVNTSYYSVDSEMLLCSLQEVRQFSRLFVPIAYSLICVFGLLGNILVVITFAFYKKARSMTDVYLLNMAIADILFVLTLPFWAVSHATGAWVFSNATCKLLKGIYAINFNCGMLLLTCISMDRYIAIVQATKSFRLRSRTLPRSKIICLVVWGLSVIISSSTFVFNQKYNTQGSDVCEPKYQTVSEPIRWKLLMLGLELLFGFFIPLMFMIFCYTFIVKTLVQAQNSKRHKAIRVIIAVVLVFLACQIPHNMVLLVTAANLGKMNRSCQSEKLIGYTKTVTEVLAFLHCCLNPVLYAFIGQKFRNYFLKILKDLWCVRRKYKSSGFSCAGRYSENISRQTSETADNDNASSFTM

target: C-C chemokine receptor type 6 (Homo sapiens) (UniProt P51684); experiment: CCR6 receptor antagonists, primary screen, cell-based, CHO-K1, luminescence, beta-arrestin, uHTS (AID 493098); conditions: CHO-K1 CCR6 PathHunter beta-arrestin, CCL20-stimulated, at 20 µM, active compounds read high;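 also: cells stimulated with CCL20 at 14 nM final; plate controls were DMSO with CCL20 for no effect and DMSO without agonist for full effect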

| SMILES | inhibition |
| --- | --- |
| O=[N+]([O-])c1cc([N+](=O)[O-])c(Nc2ccccn2)c([N+](=O)[O-])c1 | inactive: 48.6% |
| CCc1ccc(OP(C)(=O)O)cc1 | inactive: -7.02% |
| CP(=O)(Nc1ccccn1)Oc1ccccc1 (configuration not stated) | inactive: 1.27% |
| COc1ccccc1OP(C)(=O)Nc1ccc(C)cc1C (configuration not stated) | inactive: 6.4% |
| COc1ccccc1OP(C)(=O)Nc1ccc(Br)cc1 (configuration not stated) | inactive: 5.56% |
| CN(C)CCOC(=O)C(O)(c1ccccc1)C1CCCC1 (configuration not stated) | inactive: -1.48% |
| COc1ccc(OP(C)(=O)Nc2ccccn2)cc1 (configuration not stated) | inactive: -4.8% |
| CP(=O)(Nc1ccc(Cl)cc1Cl)Oc1ccccc1 (configuration not stated) | inactive: 18.5% |
| CCCCCCCCCCCCCCCC1C[N+](C)(C)CCOP(C)(=O)O1 (configuration not stated) | inactive: 19.1% |
| CP(=O)(OCCOc1ccccc1)OCCOc1ccccc1 | inactive: 7.66% |
| O=C1C(O)=C([N+](=O)[O-])C(=O)C(O)=C1[N+](=O)[O-] | inactive: 0.78% |
| Cc1cc(C)cc(OP(C)(=O)Nc2cccc(C(F)(F)F)c2)c1 (configuration not stated) | inactive: 5.73% |
| COc1ccc(OP(C)(=O)Nc2ccccc2Br)cc1 (configuration not stated) | inactive: 6.55% |
| COc1ccccc1OP(C)(=O)Nc1ccc(C)c(C)c1 (configuration not stated) | inactive: -0.51% |
| CCN(CC)CCCOC(=O)C(O)(c1ccccc1)C1CCCCC1 (configuration not stated) | inactive: 6.24% |
| Cc1c([N+](=O)[O-])cc([N+](=O)[O-])c(Br)c1[N+](=O)[O-] | inactive: 18.7% |
| O=[N+]([O-])c1cc([N+](=O)[O-])c(OC2CCCCC2O)c([N+](=O)[O-])c1 (configuration not stated) | inactive: 19% |
| CCCCCOc1ccc(NP(C)(=O)Oc2ccc(Cl)cc2Cl)cc1 (configuration not stated) | inactive: 15% |
| CP(=O)(Nc1ccccc1)Oc1ccc(F)cc1 (configuration not stated) | inactive: 5.71% |

| SMILES | inhibition |
| --- | --- |
| COc1ccc(OP(C)(=O)Nc2ccc(SC(F)(F)F)cc2)cc1 (configuration not stated) | inactive: -2.65% |
| CCOC(=O)c1ccc(NP(C)(=O)Oc2ccc(F)cc2)cc1 (configuration not stated) | inactive: 6.43% |
| O=C(OCCN1CCN(CCOCc2ccccc2)CC1)C(O)(c1ccccc1)c1ccccc1 | inactive: 9.81% |
| O=C(OC1CN2CCC1CC2)c1ccc([N+](=O)[O-])cc1 (configuration not stated) | inactive: -9.04% |
| COc1ccc2c(c1O)-c1c(O)c(OC)cc3c1[C@H](C2)[N+](C)(C)CC3.O=[N+]([O-])c1cc([N+](=O)[O-])c([O-])c([N+](=O)[O-])c1[O-] | inactive: 15.3% |
| CC(C)c1ccc(OP(C)(=O)Nc2ccc(SC(F)(F)F)cc2)cc1 (configuration not stated) | inactive: 8.06% |
| CP(=O)(Nc1ccccc1F)Oc1ccccc1 (configuration not stated) | inactive: 4.88% |
| CP(=O)(Nc1ccc2c(c1)OCCO2)Oc1ccccc1 (configuration not stated) | inactive: -3.22% |
| Cc1ccccc1NP(C)(=O)Nc1ccccc1C | inactive: -3.33% |
| CP(=O)(Nc1ccc(SC(F)(F)F)cc1)Oc1ccc(F)cc1 (configuration not stated) | inactive: 4.93% |
| CCOP(C)(=S)SCC(=O)NC(C)(CC)C(=O)O (configuration not stated) | inactive: 6.88% |
| Cc1cc(-c2cccc3ccccc23)c(C)cn1.O=[N+]([O-])c1cc([N+](=O)[O-])c(O)c([N+](=O)[O-])c1 | inactive: 34% |
| O=[N+]([O-])c1cc([N+](=O)[O-])c(NCC2CCS(=O)(=O)C2)c([N+](=O)[O-])c1 (configuration not stated) | inactive: 1.58% |
| O=[N+]([O-])c1ccc(OP2(=O)COCCO2)cc1 (configuration not stated) | inactive: -7.82% |
| Cc1c(C(c2ccc3c(c2)OCO3)c2c(C)n(C)n(-c3ccccc3)c2=O)c(=O)n(-c2ccccc2)n1C.O=[N+]([O-])c1cc([N+](=O)[O-])c(O)c([N+](=O)[O-])c1 | inactive: 0.61% |
| COc1ccc(OP(C)(=O)Nc2cccc(Br)c2)cc1 (configuration not stated) | inactive: 7.32% |
| COc1ccc(NP(C)(=O)Oc2ccccc2OC)cc1 (configuration not stated) | inactive: 6.99% |
| CN(C)CCOC(=O)C(O)(c1ccccc1)C1CCCCC1 (configuration not stated) | inactive: -18.6% |
